Only a part is listed here, and it is no random draw. Records with an inconclusive call do not appear. A call without a number means that no potency is given here. The source made the active and inactive calls. Calls come from the whole dose curve; as a rule, active = well fitted inhibition curve with a large enough effect; inconclusive = small, poorly fitted or top-dose-only effect, or another doubt; inactive = no such curve, though single readings can be large or run the other way.
Potency is the fitted concentration of half-maximal effect.

A short description of the assay: qHTS of GLP-1 Receptor Inverse Agonists: Cytotox Screen.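 Note: loss of luciferase light is scored as toxicity.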 The conditions noted are these: HEK293 cAMP-luciferase reporter cells, luminescence, 24 h; series mostly up to 38.3 µM. The source says:
The overall goal of this project was to develop a novel assay for discovering small molecule ligands for class B1 G protein-coupled receptors (GPCRs). Very few agonists (or inverse agonists) with generally weak activity for this entire group of physiologically important receptors are known to date. To establish proof-of-principle that this critical bottleneck can be overcome with a suitable screening approach, our studies focused on the class B1 receptor for glucagon-like peptide-1 (GLP-1R), a potential therapeutic target for diabetes and neurodegenerative disease.
The assay was developed using a cell-based functional readout. Toward this goal, stably transfected HEK293 cell clones were established that co-express (i) a cAMP-responsive luciferase reporter gene, and (ii) constitutively active GLP-1R that upon ligand interaction inhibit (inverse agonists) the luciferase activity. In addition, two control cell lines were developed: (i) one that express only the cAMP-responsive reporter gene to enable initial exclusion of GLP-1R independent effects of candidate probes; and (ii) one with the reported gene cloned with another constitutively active orphan receptor GPR119 to enable exclusion of GLP-1R independent inhibitor effects of candidate inverse agonists.
To that end, this assay was optimized for 1536-well format and screened against the MLSMR. Then the same collection was run in this cytotoxicity assay where inhibition was the undesired outcome.
NIH Molecular Libraries Probe Production Network [MLPCN]
NIH Chemical Genomics Center [NCGC]
PI Name: Martin Beinborn, Tufts Medical Center
Six ul of cell suspension (200 cells/uL in DMEM + 10% Nu serum + 1% pen-strep) is dispensed in a white solid 1536-well plate. The plates are incubated for 12 hours at 37 deg C at 5% CO2 followed by addition of 23 nL compounds. After 24 hr incubation at 37 deg C and 5% CO2, 3 uL of luciferase assay detection reagent is added. A luminescence read is obtained on the PerkinElmer Viewlux after 12 min incubation at room temperature.
A general note: In qHTS, concentration-response curves come from the screen itself.
For `COc1ccccc1-c1ccccn1.O=[N+]([O-])c1cc([N+](=O)[O-])c(O)c([N+](=O)[O-])c1`, the activity change, negative = inhibition result is “inactive”.

Take `CCN(CC)CCCOC(=O)C(O)(c1ccccc1)c1ccccc1`: the activity change, negative = inhibition result was “inactive”.

Regarding `CCOC(=O)c1ccc(NP(C)(=O)Oc2ccccc2)cc1` (stereo not given), the activity change, negative = inhibition result was “inactive”.

In the case of `COc1ccccc1OP(C)(=O)Nc1ccc(C)cc1` (stereo not given), the activity change, negative = inhibition entry was “inactive”.

Turning to `Cc1ccc(NP(C)(=O)Oc2ccccc2)c(C)c1` (stereo not given), the activity change, negative = inhibition result was “inactive”.

On to `COc1ccccc1OP(C)(=O)Nc1cc(Cl)ccc1C` (stereo not given), for which the activity change, negative = inhibition entry is “inactive”.

Consider `COc1ccc(OP(C)(=O)Nc2cccc(F)c2)cc1` (stereo not given), for which the activity change, negative = inhibition result is “inactive”.

Take `Cc1cc(C)cc(OP(C)(N)=O)c1` (stereo not given): the activity change, negative = inhibition result was “inactive”.

In the case of `O=[N+]([O-])c1cc([N+](=O)[O-])c(Nc2cccnc2)c([N+](=O)[O-])c1`, the activity change, negative = inhibition result was “inactive”.

Turning to `Cc1cccc(C)c1OP(C)(N)=O` (stereo not given), the activity change, negative = inhibition was inactive: -0.671% [at 7.66 µM].

For the compound `CP(=S)(Nn1cnnc1)Oc1ccccc1` (stereo not given), the activity change, negative = inhibition result is “inactive”.

Turning to `COc1ccccc1OP(C)(=O)Nc1ccccc1` (stereo not given), the activity change, negative = inhibition entry was “inactive”.

Take `CP(=O)(Nc1ccccc1Br)Oc1ccccc1` (stereo not given): the activity change, negative = inhibition entry was “inactive”.

Turning to `CCOP(C)(=S)SCC(=O)NC(C)C(=O)O` (stereo not given), the activity change, negative = inhibition result was “inactive”.

As to `CCOC(=O)c1ccc(NP(C)(=O)Oc2ccc(OC)cc2)cc1` (stereo not given), the activity change, negative = inhibition was inactive: 2.92% [at 1.53 µM].

On to `CP(=O)(Nc1ccccn1)Oc1ccc(Cl)cc1` (stereo not given), for which the activity change, negative = inhibition result is “inactive”.

With `Cc1cccc(C)c1OP(C)(=O)Nc1ccc(SC(F)(F)F)cc1` (stereo not given), the activity change, negative = inhibition entry is “inactive”.

In the case of `CP(=O)(Nc1ccc(SC(F)(F)F)cc1)Oc1ccc(Cl)cc1` (stereo not given), the activity change, negative = inhibition result was “inactive”.

As to `CP(=O)(Oc1ccccc1)OC(c1ccccc1)C(F)(F)F` (stereo not given), the activity change, negative = inhibition entry is “inactive”.

On to `CCc1ccc(OP(C)(=O)N2CCN(c3ccc([N+](=O)[O-])cc3)CC2)cc1` (stereo not given), for which the activity change, negative = inhibition result was “inactive”.

As to `CP(=O)(NC(=O)Nc1ccccc1)Oc1ccccc1` (stereo not given), the activity change, negative = inhibition result is “inactive”.

In the case of `Cc1cc(C)cc(OP(C)(=O)Nc2ccc(SC(F)(F)F)cc2)c1` (stereo not given), the activity change, negative = inhibition entry is “inactive”.

For `O=[N+]([O-])c1cc([N+](=O)[O-])c(-c2cnn(-c3ccccc3)c2)c([N+](=O)[O-])c1`, the activity change, negative = inhibition entry is “inactive”.

Take `CN(Cc1cccnc1)C(=O)COc1ccc(Cl)c(Cl)c1.O=[N+]([O-])c1cc([N+](=O)[O-])c(O)c([N+](=O)[O-])c1`: the activity change, negative = inhibition entry is “inactive”.

`COc1ccccc1OP(C)(=O)Nc1c(C)cccc1C` (stereo not given): the activity change, negative = inhibition result was “inactive”.

Consider `CN1CCCCC1COC(=O)C1(O)c2ccccc2CCc2ccccc21` (stereo not given), for which the activity change, negative = inhibition entry was “inactive”.

Regarding `CP(=O)(Nc1ccc(SC(F)(F)F)cc1)Oc1ccccc1` (stereo not given), the activity change, negative = inhibition result was “inactive”.

For the compound `CCCOc1ccc(NP(C)(=O)Oc2ccc(Cl)cc2)cc1` (stereo not given), the activity change, negative = inhibition result was “inactive”.

As to `CC1=C2N=C(C=C3N=C(C(C)=C4[N-][C@@](C)([C@@H]5N=C1[C@](C)(CCC(=O)NC[C@@H](C)OP(=O)([O-])O[C@H]1[C@@H](O)[C@@H](n6cnc7cc(C)c(C)cc76)O[C@@H]1CO)[C@H]5CC(N)=O)[C@@](C)(CC(N)=O)[C@@H]4CCC(N)=O)[C@@](C)(CC(N)=O)[C@@H]3CCC(N)=O)C(C)(C)[C@@H]2CCC(N)=O.[C-]#N.[Co+3]`, the activity change, negative = inhibition result was “inactive”.

As to `CC1=NCCc2c1[nH]c1ccccc21.O=[N+]([O-])c1cc([N+](=O)[O-])c(O)c([N+](=O)[O-])c1`, the activity change, negative = inhibition entry is “inactive”.

As for `CP(=O)(Nc1cccc(Br)c1)Oc1ccccc1` (stereo not given), the activity change, negative = inhibition entry is “inactive”.

Take `Cc1cc(C)cc(OP(C)(=O)Nc2ccccn2)c1` (stereo not given): the activity change, negative = inhibition result was “inactive”.

In the case of `Cc1ccc(C)c(NP(C)(=O)Oc2ccccc2)c1` (stereo not given), the activity change, negative = inhibition entry was “inactive”.

In the case of `COc1ccccc1OP(C)(=O)Nc1cccc(Br)c1` (stereo not given), the activity change, negative = inhibition entry was “inactive”.

Regarding `Cc1cc(C)cc(OP(C)(=O)Nc2ccc(C)cc2C)c1` (stereo not given), the activity change, negative = inhibition entry was “inactive”.

As for `O=C(OCCN1CCN(CCOCc2ccccc2)CC1)C(O)(c1ccccc1)c1ccccc1`, the activity change, negative = inhibition entry was “inactive”.

As for `CC(C)c1ccc(OP(C)(=O)Nc2ccc(SC(F)(F)F)cc2)cc1` (stereo not given), the activity change, negative = inhibition entry is “inactive”.

Take `CP(=O)(Nc1ccccc1F)Oc1ccccc1` (stereo not given): the activity change, negative = inhibition entry is “inactive”.

`CCN(CC)CCCOC(=O)C(O)(c1ccccc1)C1CCCCC1` (stereo not given): the activity change, negative = inhibition entry was “inactive”.

With `Cc1c([N+](=O)[O-])cc([N+](=O)[O-])c(Br)c1[N+](=O)[O-]`, the activity change, negative = inhibition entry is “inactive”.

On to `CP(=O)(Nc1ccccc1)Oc1ccc(F)cc1` (stereo not given), for which the activity change, negative = inhibition entry was “inactive”.

Regarding `COc1ccc(OP(C)(=O)Nc2ccc(SC(F)(F)F)cc2)cc1` (stereo not given), the activity change, negative = inhibition entry was “inactive”.

With `CCOC(=O)c1ccc(NP(C)(=O)Oc2ccc(F)cc2)cc1` (stereo not given), the activity change, negative = inhibition is inactive: 6.76% [at 1.53 µM].

In the case of `O=[N+]([O-])c1ccc(OP2(=O)COCCO2)cc1` (stereo not given), the activity change, negative = inhibition result was “inactive”.

As to `Cc1c(C(c2ccc3c(c2)OCO3)c2c(C)n(C)n(-c3ccccc3)c2=O)c(=O)n(-c2ccccc2)n1C.O=[N+]([O-])c1cc([N+](=O)[O-])c(O)c([N+](=O)[O-])c1`, the activity change, negative = inhibition result was “inactive”.

For the compound `COc1ccc(OP(C)(=O)Nc2cccc(Br)c2)cc1` (stereo not given), the activity change, negative = inhibition entry was “inactive”.

On to `COc1ccc(NP(C)(=O)Oc2ccccc2OC)cc1` (stereo not given), for which the activity change, negative = inhibition result is “inactive”.

For the compound `CN(C)CCOC(=O)C(O)(c1ccccc1)C1CCCCC1` (stereo not given), the activity change, negative = inhibition result was “inactive”.

Take `CP(=O)(Nc1ccc2c(c1)OCCO2)Oc1ccccc1` (stereo not given): the activity change, negative = inhibition entry is “inactive”.

Consider `O=[N+]([O-])c1cc([N+](=O)[O-])c(C(F)(F)F)c([N+](=O)[O-])c1O`, for which the activity change, negative = inhibition entry was “inactive”.

Take `Cc1ccccc1NP(C)(=O)Nc1ccccc1C`: the activity change, negative = inhibition result is “inactive”.

With `CP(=O)(Nc1ccc(SC(F)(F)F)cc1)Oc1ccc(F)cc1` (stereo not given), the activity change, negative = inhibition entry was “inactive”.

Regarding `CCOP(C)(=S)SCC(=O)NC(C)(CC)C(=O)O` (stereo not given), the activity change, negative = inhibition entry is “inactive”.

Regarding `CP(=O)(Nc1ccc(Cl)cc1)Oc1ccc(F)cc1` (stereo not given), the activity change, negative = inhibition result is “inactive”.

With `CC(C)(C)c1ccc(OP(C)(=O)O)cc1`, the activity change, negative = inhibition entry is “inactive”.

On to `COc1ccccc1OP(C)(=O)Nc1ccccc1Br` (stereo not given), for which the activity change, negative = inhibition was inactive: -6.06% [at 7.66 µM].

Consider `CN(C)C(=O)c1c([N+](=O)[O-])cc([N+](=O)[O-])cc1[N+](=O)[O-]`, for which the activity change, negative = inhibition result is “inactive”.

`CCN(CC)CC(O)COC(=O)C(O)(c1ccccc1)C1CCCCC1` (stereo not given): the activity change, negative = inhibition entry was “inactive”.

As to `COc1ccc(OP(C)(=O)Nc2ccc(Br)cc2)cc1` (stereo not given), the activity change, negative = inhibition result was “inactive”.

Regarding `CP(=O)(Oc1ccccc1)N1CCOC1=O` (stereo not given), the activity change, negative = inhibition result is “inactive”.

For `CCc1ccc(OP(C)(=O)Nc2cccnc2)cc1` (stereo not given), the activity change, negative = inhibition is inactive: -0.754% [at 0.307 µM].

On to `COc1ccccc1OP(C)(=O)Nc1c(C)n(C)n(-c2ccccc2)c1=O` (stereo not given), for which the activity change, negative = inhibition result is “inactive”.

Turning to `O=C(OCCCN1CCCC1)C(O)(c1ccccc1)C1CCCCC1` (stereo not given), the activity change, negative = inhibition result is “inactive”.

Take `Nc1ccc2c(ccc3cccnc32)n1.O=[N+]([O-])c1cc([N+](=O)[O-])c(O)c([N+](=O)[O-])c1`: the activity change, negative = inhibition result is “inactive”.

`CP(=O)(OC12CC3CC(CC(C3)C1)C2)OC12CC3CC(CC(C3)C1)C2`: the activity change, negative = inhibition entry is “inactive”.

Turning to `CCOC(=O)c1ccc(NP(C)(=O)Oc2ccc(Cl)cc2)cc1` (stereo not given), the activity change, negative = inhibition result was “inactive”.

With `CP(=O)(OCCOc1ccccc1)OCCOc1ccccc1`, the activity change, negative = inhibition entry is “inactive”.

As for `CCCCCCCCCCCCCCCC1C[N+](C)(C)CCOP(C)(=O)O1` (stereo not given), the activity change, negative = inhibition entry was “inactive”.

For the compound `CP(=O)(Nc1ccc(Cl)cc1Cl)Oc1ccccc1` (stereo not given), the activity change, negative = inhibition result was “inactive”.

On to `Cc1cc(C)cc(OP(C)(=O)Nc2cccc(C(F)(F)F)c2)c1` (stereo not given), for which the activity change, negative = inhibition result is “inactive”.

With `COc1ccc(OP(C)(=O)Nc2ccccc2Br)cc1` (stereo not given), the activity change, negative = inhibition result was “inactive”.

Turning to `COc1ccccc1OP(C)(=O)Nc1ccc(C)c(C)c1` (stereo not given), the activity change, negative = inhibition entry is “inactive”.

Take `O=[N+]([O-])c1cc([N+](=O)[O-])c(Nc2ccccn2)c([N+](=O)[O-])c1`: the Potency is active: 12.6 µM.

Take `Cc1c(NP(C)(=O)Oc2ccc(C(C)C)cc2)c(=O)n(-c2ccccc2)n1C` (stereo not given): the activity change, negative = inhibition entry was “inactive”.

Turning to `CCc1ccc(OP(C)(=O)O)cc1`, the activity change, negative = inhibition result was “inactive”.

As to `CP(=O)(Nc1ccccn1)Oc1ccccc1` (stereo not given), the activity change, negative = inhibition result is “inactive”.

On to `COc1ccccc1OP(C)(=O)Nc1ccc(C)cc1C` (stereo not given), for which the activity change, negative = inhibition entry is “inactive”.

Regarding `COc1ccccc1OP(C)(=O)Nc1ccc(Br)cc1` (stereo not given), the activity change, negative = inhibition entry is “inactive”.

For `CN(C)CCOC(=O)C(O)(c1ccccc1)C1CCCC1` (stereo not given), the activity change, negative = inhibition entry was “inactive”.

In the case of `COc1ccc(OP(C)(=O)Nc2ccccn2)cc1` (stereo not given), the activity change, negative = inhibition result is “inactive”.

Values taken from PubChem BioAssay AID624418 (National Center for Advancing Translational Sciences (NCATS), 2012).
